Molecular target: human μ-opioid receptor (OPRM1) (Homo sapiens, UniProt P35372)
Test: Forskolin-induced cAMP accumulation assay, MOR antagonist mode
Conditions: versus EC90 of fentanyl; for IC50: read-out: MOR Antagonist IC50 ± SEM; for MOR Antagonist %Imax ± SEM: normalized to naltrexone

The chains behind the UniProt entries cited, without tags or fusion partners.
UniProt P35372, whole entry, looked up: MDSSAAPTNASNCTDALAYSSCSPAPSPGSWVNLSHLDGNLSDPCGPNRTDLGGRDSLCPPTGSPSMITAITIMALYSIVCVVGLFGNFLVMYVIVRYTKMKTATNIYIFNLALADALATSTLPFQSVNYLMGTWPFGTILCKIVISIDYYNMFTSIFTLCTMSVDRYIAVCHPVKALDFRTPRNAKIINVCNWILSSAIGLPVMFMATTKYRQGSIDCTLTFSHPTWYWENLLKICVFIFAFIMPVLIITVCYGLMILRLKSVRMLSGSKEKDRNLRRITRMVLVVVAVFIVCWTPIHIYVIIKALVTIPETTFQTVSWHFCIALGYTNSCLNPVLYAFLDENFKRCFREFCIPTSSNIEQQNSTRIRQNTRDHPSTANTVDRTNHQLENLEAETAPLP

| SMILES | IC50 | MOR Antagonist %Imax ± SEM | MOR Antagonist IC50 ± SEM |
| --- | --- | --- | --- |
| C=C[C@@H]1[C@H]2CCC[C@]1(c1cccc(O)c1)CCN2CCc1ccccc1 [Compound 9, 3-((1R,5S,9S)-2-Phenethyl-9-vinyl-2-azabicyclo [3.3.1]nonan-5-yl)phenol] | 45.6 nM | 18.8 ± 3.8% | – |
| C=C[C@H]1[C@@H]2CCC[C@@]1(c1cccc(OC)c1)CCN2CCc1ccccc1 [Compound 13, (1S,5R,9R)-5-(3-Methoxyphenyl)-2-phenethyl-9-vinyl-2-azabicyclo [3.3.1]nonane] | 2720 nM | 128.5 ± 16.6% | – |
| C=C[C@@H]1[C@@H]2CCC[C@@]1(c1cccc(O)c1)CCN2CCc1ccccc1 [Compound 14, 3-((1S,5R,9S)-2-Phenethyl-9-vinyl-2-azabicyclo [3.3.1]nonan-5-yl)phenol] | 50.6 nM | 70.6 ± 8.0% | – |
| C=C[C@H]1[C@@H]2CCC[C@@]1(c1cccc(O)c1)CCN2CCc1ccccc1 [Compound 15, 3-((1S,5R,9R)-2-Phenethyl-9-vinyl-2-azabicyclo [3.3.1]nonan-5-yl)phenol] | 3.58 nM | 130.8 ± 4.5% | more potent than naltrexone |
| C/C=C\[C@H]1[C@@H]2CCC[C@@]1(c1cccc(O)c1)CCN2CCc1ccccc1 [Compound 20, 3-((1S,5R,9R)-2-Phenethyl-9-((Z)-prop-1-en-1-yl)-2-azabicyclo [3.3.1]nonan-5-yl)phenol] | 2.34 nM | 157.1 ± 4.0% | more potent than naltrexone |
| C/C=C\[C@@H]1[C@@H]2CCC[C@@]1(c1cccc(O)c1)CCN2CCc1ccccc1 [Compound 21, 3-((1S,5R,9S)-2-Phenethyl-9-((Z)-prop-1-en-1-yl)-2-azabicyclo [3.3.1]nonan-5-yl)phenol] | 45.6 nM | 39.8 ± 3.9% | – |
| CC/C=C\[C@@H]1[C@@H]2CCC[C@@]1(c1cccc(O)c1)CCN2CCc1ccccc1 [Compound 26, 3-((1S,5R,9S)-9-((Z)-But-1-en-1-yl)-2-phenethyl-2-azabicyclo [3.3.1]nonan-5-yl)phenol] | 20 nM | 129.4 ± 3.4% | – |
| CC/C=C\[C@H]1[C@@H]2CCC[C@@]1(c1cccc(O)c1)CCN2CCc1ccccc1 [Compound 27, 3-((1S,5R,9R)-9-((Z)-But-1-en-1-yl)-2-phenethyl-2-azabicyclo [3.3.1]nonan-5-yl)phenol] | 2.37 nM | 167.8 ± 10.6% | more potent than naltrexone |

Reference: publication PMC9570967 (Molecules, 2022)
